Values quoted from earlier work in US20080090808A1, “Pharmaceutical compositions and methods for preventing, treating, or reversing neuronal dysfunction” (published 2008).
Where two headings read alike, the source gives them in different places.

Experiments:
NMDA receptor = NMDA receptor (Rattus norvegicus, UniProt P35439); conditions: listed as (−)-huperzine A
[1] = oral, rat
[2] = tablet, oral
AChE = conditions: PB given less than 3 hours prior to soman exposure
[3] = preclinical studies

5,9-Methanocycloocta(b)pyridin-2(1H)-one, 5-amino-11-ethylidene-5,6,9,10-tetrahydro-7-methyl-, (5R,9R,11E)-
maximal ACh elevation in the brain (ACh; 30-60 minutes after i.m. 2 mg/kg): 40% | increase in ACh levels (ACh; 60 min after i.m. 2 mg/kg): up to 40% | elevation in ACh level in the brain (ACh; 6 hours after i.m. 2 mg/kg): 12% | maximal ACh elevation (ACh; frontal cortex, i.m. 2 mg/kg): 125% | ACh increase (ACh; other brain regions, i.m. 2 mg/kg): 22-65% | maximal ACh elevation (ACh; parietal cortex, i.m. 2 mg/kg): 105% | NMDA receptor antagonism / block of NMDA calcium ion channel, enantiomers compared (NMDA receptor): equal potency

C/C=C1\[C@H]2C=C(C)C[C@]1(N)c1ccc(=O)[nH]c1C2
time to peak plasma concentrations [1]: 10 to 30 min | absorption half-life (T1/2Ka) [2]: 12.6 min | elimination half-life [2]: approximately 288.5 minutes | time to peak plasma concentrations ([2]; average): approximately 79.6 minutes | patients showing side effects (1200 μg/day): approximately 50% | tolerability (daily oral doses of 300-400 μg): well tolerated with a low incidence of side effects

CN(C)C(=O)Oc1ccc[n+](C)c1
AChE inhibition level (AChE): increased levels of ACHE inhibition

CN1[C@@H]2CC[C@H]1C[C@@H](OC(=O)C(CO)c1ccccc1)C2 (stereo partly drawn)
effect on acute toxicity associated with huperzine A [3]: reduced acute toxicity associated with huperzine A
